Measured values published in PMC8619202, “Optimization of Microwave-Assisted Green Method for Enhanced Solubilization of Water-Soluble Curcuminoids Prepared Using Steviol Glycosides” (Foods, 2021).

Test: Storage stability of curcuminoids solubilized in steviol glycoside solutions, HPLC
Method: In order to evaluate the stability in 10% (w/v) SGs, the water-soluble curcuminoids were analyzed by HPLC for 1 month. […] In order to achieve better solubility, transglycosylation is regarded as an important procedural phenomenon that leads to structural modifications and derivatizations that result in enhanced biological activities and improved solubility. Moreover, heating in the case of microwave irradiation is usually dependent on the nature of the sample, the solvent employed, and the irradiation power level mediated through the ionic conduction and dipole rotation (also known as dipole polarization) of the microwaves. In the absence of ions, water dipoles are found in the free form and may experience dipole rotation due to microwave radiation-induced oscillation.

rebaudioside [Reb-A]
stability of aqueous curcuminoid solutions on long-term storage: did not exhibit good stability
